The list is not random: actives were taken first. Their share in the collection is about 1.2%.
N-glyco inh – blocks N-linked glycosylation in D54 reporter cells; D54 ERlucT glycosylation luciferase reporter, 24 h; percent of 100 nM tunicamycin response; reporter increase, % at 12.5 µM; hit rate 0.23% among 360,000; AID 588692;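 active means mean luciferase reporter signal, scaled so untreated is 0 and the glycosylation-blocking control 100, at or above a set limit in every replicate; inconclusive means mean reaches the limit but not every replicate does; inactive means mean below the limit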;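 further: luciferase carries N-glycosylation sites so blocking glycosylation raises the light; 0% = median of neutral control wells and 100% = median of 100 nM tunicamycin wells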
miR122 inh – blocks miR-122 activity in Huh7 sensor cells. Huh7 miR-122 Renilla luciferase sensor, 48 h; neutral wells = 0, positive control = 100. activation (reporter increase), % at 12.5 µM. hit rate 0.3% among 340,000;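 active means mean replicate activation score at least 90 and every replicate individually at or above 90; inconclusive means only one of the two criteria met; inactive means neither criterion met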;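 further: higher luciferase means less miR-122 activity so hits act as miR-122 inhibitors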
UUG fidelity – yeast start codon fidelity modulation | S. cerevisiae UUG-firefly luciferase reporter, luminescence/redox ratio | activity score, % at 18.7 µM | 0.13% of 350,000 active | AID 602363;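 active means replicate mean at a twofold rise or more, about +100% in these data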;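 further: firefly luciferase made from a UUG start codon reports start codon fidelity; reporter light over untreated wells divided by growth signal over untreated wells; some hits fall short of that in this replicate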
Cneo AK release – Cryptococcus neoformans lysis via adenylate kinase release; C. neoformans lysis, adenylate kinase release luminescence, 4 h; normalised: neutral wells 0, clomiphene wells 100; lysis activity, % at 15 µM; hit rate 0.2% among 360,000;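 active means mean lysis activity across replicates of at least 80%, whatever share of replicates individually reach that level; inactive means mean lysis activity below 80%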
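Schedule: static 4 h at 37 °C with compound, 1 h detection; system: C. neoformans cells; benchmarks: Clomiphene as positive control; buffer or medium: fresh YPD medium; measure: luminescence rise reflecting yeast cell lysis; measured by: luminescent adenylate kinase detection reagent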
C2C12 statin – suppression of simvastatin myotoxicity; hit rate 0.78% among 330,000; rescue of ATP level, % at 7.49 µM; AID 602340; C2C12 myotubes + simvastatin, ATP luminescence, 48 h; scaled: DMSO 0, geranylgeraniol control 100;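 active means mean ATP rescue above about 67%, or every replicate alone reaching that limit, limit read from the data, passing the limit was not always enough; inconclusive means no clear call, values can overlap the other calls; inactive means mean under the limit and some replicate under it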;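 further: myotubes were challenged with 10 µM simvastatin during compound exposure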
* = called active by the depositor; ? = inconclusive; . = not tested or not shown; [ ] = remark or other dose.

smiles	N-glyco inh	miR122 inh	UUG fidelity	Cneo AK release	C2C12 statin
O=C(CCN1C(=O)/C(=C/c2ccco2)SC1=S)Nc1ccc(O)cc1C(=O)O	0	-4	-13	1	2
C#CCN1C(=O)C2C(C(=O)NC)C3C=CC2(O3)C1C(=O)NCc1ccc(OC)cc1 (stereo not drawn)	2	-4	-1	0	-7
C=CCN1C(=O)C2C(C(=O)NC)C3C=CC2(O3)C1C(=O)NCc1ccc(OC)cc1 (stereo not drawn)	1	-1	15	3	105*
Cc1ccc(Cc2nnc3n(-c4ccccc4)nc(C(=O)c4ccccc4)n3c2=O)cc1	0	-5	-8	4	91*
Cc1ccc(CNC(=O)c2cc(C)nn2-c2ccccc2)cc1	1	-5	.	.	14
O=C(Nc1ncn[nH]1)c1c(Cl)ccc(Cl)c1Cl	-3	7	-13	-1	153*
O=C(Nc1ncn[nH]1)c1ccccc1O	1	-6	-1	-2	-5
CCCN(C)C[C@H]1Oc2cc(-c3cccc(F)c3)ccc2S(=O)(=O)N([C@@H](C)CO)C[C@H]1C	.	-6[16.7 µM]	.	.	-75
CCS(=O)(=O)Nc1ccc2c(c1)C(=O)N(C)[C@H]1CC[C@H](CC(=O)NCCOC)O[C@@H]1CO2	.	.	.	-4	-9
CC(=O)c1ccc(-c2cc([C@H]3[C@H]4C=CC[C@@H](C)[C@@H]4C(=O)N3Cc3ccccc3)ccc2F)cc1	-3	-1	-8	0	160*
C[C@@H]1CC=C[C@H]2[C@H]1C(=O)N(Cc1ccccc1)[C@H]2c1ccc(F)c(-c2ccc(N(C)C)cc2)c1	-3	-2	-21	0	-8
C[C@@H]1CN([C@@H](C)CO)C(=O)c2cc(-c3ccc(C#N)cc3)cnc2O[C@H]1CN(C)C(=O)Nc1ccc(C(F)(F)F)cc1	.	33[16.7 µM]	.	4	-9
C[C@@H]1CN([C@@H](C)CO)S(=O)(=O)c2ccc(C3=CCCCC3)cc2O[C@H]1CN(C)Cc1cccc(C(=O)O)c1	.	8[16.7 µM]	.	-4	-2
Cc1ccc(NC(=S)NCc2ccc(F)cc2)cc1	0	106*	-30	3	1
Cc1cccc(NC(=S)NCc2ccc(F)cc2)c1	-2	17	-14	15	2
C=C(C)COC(=O)c1ccccc1C(=O)OCC1(C)CO1 (stereo not drawn)	0	-8	-18	3	98*
CC(=O)c1ccccc1NC(=O)COC(=O)c1cc(C)oc1C	-2	0	-14	-5	-9
COc1ccc(CNC(=O)C[C@@H]2C=C[C@H](NC(=O)Nc3ccc4c(c3)OCO4)[C@H](CO)O2)cc1	.	.	-1	-4	8
Cn1c2c(c(=O)n(C)c1=O)CN(Cc1ccc(F)cc1)CN2	2	-6	-11	3	13
Cn1c2c(c(=O)n(C)c1=O)CN(Cc1ccc3c(c1)OCO3)CN2	2	-6	-12	-8	112*
CCOc1cccc(OCCCCN2CCOCC2)c1	2	6	-7	4	-12
COc1cccc(OCCCCCCN2CCOCC2)c1	-1	10	-1	0	112*
O=C(C[C@@H]1CC[C@H](NC(=O)Cc2ccccn2)[C@H](CO)O1)NCCc1ccccc1	.	.	1	81*	0
O=C(C[C@H]1CC[C@H](NC(=O)Cc2ccccn2)[C@@H](CO)O1)NCCc1ccccc1	.	.	-8	0	-2

miR122 inh, hit marks shown above.
| SMILES | N-glyco inh | miR122 inh | UUG fidelity |
| --- | --- | --- | --- |
| Cc1ccc(NC(=S)NCc2ccc(F)cc2)cc1 | 0 | 106* | -30 |

More entries follow.
smiles	N-glyco inh	miR122 inh	UUG fidelity	Cneo AK release	C2C12 statin
Cc1ccc(-n2c(=O)cc(N3CCN(C(=O)c4ccco4)CC3)[nH]c2=O)cc1	3	5	-7	2	102*
CCOC(=O)C1CCN(S(=O)(=O)c2nc3nc(C)cc(C)n3n2)CC1	1	-9	-13	-1	104*
CCOC(=O)C1CCN(C(=O)COC(=O)c2nc3nc(C)cc(C)n3n2)CC1	1	-3	-11	-2	1
CN(C(=O)CSc1nc(-c2ccccc2)cn1N)C(c1ccccc1)c1ccccc1	-5	-2	-17	1	78*
COc1ccc(NC(=O)Nc2ccc3c(c2)C(=O)N([C@H](C)CO)C[C@H](C)[C@@H](CN(C)S(C)(=O)=O)OCCCC[C@@H](C)O3)cc1	.	7[16.7 µM]	35	57	.
CCC(C)[C@H]1COCCS(=O)(=O)N1Cc1ccc(Br)cc1 (stereo partly drawn)	-1	1	-10	0	117*
COc1cc(-c2noc(C)c2-c2ccc(N(C)C)nc2)cc(OC)c1OC	?	.	0	-1	-59

Quoted from the entries so far for reference:
smiles	N-glyco inh	miR122 inh	UUG fidelity	Cneo AK release	C2C12 statin
CCC(C)[C@H]1COCCS(=O)(=O)N1Cc1ccc(Br)cc1 (stereo partly drawn)	-1	1	-10	0	117*
COc1cc(-c2noc(C)c2-c2ccc(N(C)C)nc2)cc(OC)c1OC	?	.	0	-1	-59

Compound activity from PubChem BioAssay.
